Patent US20090137577A1, “HETEROCYCLIC COMPOUNDS” (Pfizer Inc., priority 2007, published 2009)

By UniProt entry, the sequences of proteins in these tests, tags left out. Residues count along the entry.
UniProt Q14416, 19-872 limits assumed: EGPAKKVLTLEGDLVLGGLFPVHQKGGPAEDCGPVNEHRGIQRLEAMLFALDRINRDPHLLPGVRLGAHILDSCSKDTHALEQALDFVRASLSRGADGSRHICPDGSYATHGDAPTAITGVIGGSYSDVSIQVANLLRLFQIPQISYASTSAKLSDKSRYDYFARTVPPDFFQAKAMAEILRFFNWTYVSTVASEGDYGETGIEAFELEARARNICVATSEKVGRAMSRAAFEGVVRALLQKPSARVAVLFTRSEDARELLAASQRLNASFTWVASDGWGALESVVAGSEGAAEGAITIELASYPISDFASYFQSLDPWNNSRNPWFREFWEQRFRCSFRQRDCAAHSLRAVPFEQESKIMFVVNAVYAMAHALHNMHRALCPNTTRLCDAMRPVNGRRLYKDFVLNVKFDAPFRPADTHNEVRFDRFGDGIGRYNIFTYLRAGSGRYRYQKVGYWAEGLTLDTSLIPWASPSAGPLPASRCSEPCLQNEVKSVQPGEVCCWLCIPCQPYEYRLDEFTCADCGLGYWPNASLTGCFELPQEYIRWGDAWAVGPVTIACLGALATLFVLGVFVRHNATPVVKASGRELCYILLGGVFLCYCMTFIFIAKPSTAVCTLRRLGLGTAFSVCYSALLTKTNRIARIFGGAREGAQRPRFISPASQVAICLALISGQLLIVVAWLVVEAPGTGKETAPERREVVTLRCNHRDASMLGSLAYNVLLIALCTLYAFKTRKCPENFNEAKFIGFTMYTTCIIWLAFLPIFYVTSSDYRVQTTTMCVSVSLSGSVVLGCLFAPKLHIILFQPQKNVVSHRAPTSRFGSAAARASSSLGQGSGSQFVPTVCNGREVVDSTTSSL

Target: mGluR2 receptor (metabotropic glutamate receptor 2) (Homo sapiens, UniProt Q14416)
Experiment: mGluR2 potentiator screen (FLIPR, EC10-EC20 glutamate challenge);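 further: HEK cells stably expressing human mGluR2 with GL15 G protein, Fluo-4 calcium fluorescence read on FLIPR, compounds added before an EC10-EC20 glutamate challenge to detect potentiation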
Assay type: cell-based
Conditions: read-out: mGluR 2 EC50 (geometric mean)

EC50: 0.0801 µM
Structure (SMILES): CC1CN(Cc2ccc(O[C@@H]3C[C@H]4CC[C@@H]3C4)cc2)C(=O)O1 (stereo partly shown)
